# Binding of CDR-mutated scFvs to a peptide of the spike HR2 region

Data: MIT Lincoln Laboratory AlphaSeq set, Engelhart et al. 2022, doi:10.1038/s41597-022-01779-4, as distributed in FLAb.

Target peptide (SARS-CoV-2 spike, HR2 region): PDVDLGDISGINAS

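The parent was found by panning a naive human phage display library on the peptide. Variants in AAYL49 differ from the parent at up to three CDR positions; double and triple changes were sampled at random. The scFvs were displayed on barcoded MATa yeast, the peptide on MATalpha yeast. Mating (16 h, 30 °C) was followed by selection of diploids and sequencing of their barcodes. Scores were corrected for input abundance and mapped to Kd with protein pairs of known affinity run in the same pool. Each pool was mated in three replicate cultures.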

Parent scFv Ab-14: VH joined to VL by a (GGGGS)3 linker. Changes lie in the heavy chain CDRs alone.
VH: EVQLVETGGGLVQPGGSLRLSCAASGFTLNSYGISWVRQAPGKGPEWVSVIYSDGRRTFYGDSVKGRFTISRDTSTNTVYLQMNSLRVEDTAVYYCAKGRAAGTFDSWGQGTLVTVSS
VL: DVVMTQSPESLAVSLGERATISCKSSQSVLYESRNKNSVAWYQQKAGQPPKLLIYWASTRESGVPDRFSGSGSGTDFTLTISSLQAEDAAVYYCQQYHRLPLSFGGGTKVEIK

Each variant is given by its three heavy chain CDRs, as the data file delimits them; those of the parent are GFTLNSYGIS, VIYSDGRRTFYGDSVK, GRAAGTFDS. Affinities are written as log10 Kd with Kd in nM; a lower number is a better binder. An entry "nd" has no value in the source: the pair was not observed among the diploids in that replicate. This suggests poor binding but is not conclusive. Background: pairings of library AAYL49 with three empty control strains gave a value in 15% of cases (median 4.06, 5th percentile 2.83). Values in that range, when seen in few replicates, are hard to tell from nonspecific mating. Also given: how often the same scFv was detected with the empty control strains, with their mean in brackets.

{"CDR-H1": "GFTLNSYGIS", "CDR-H2": "EIYSDGRRTFYGDSYK", "CDR-H3": "GRVAGTFDS", "replicates, log10 nM": "nd / nd / 6.18", "signal with controls": "3/9 (4.50)"}
{"CDR-H1": "GFTLNSYGIS", "CDR-H2": "VIYSDGRRNFYGDSVK", "CDR-H3": "GRFGGTFDS", "replicates, log10 nM": "nd / nd / 3.27", "signal with controls": "0/9"}
{"CDR-H1": "GFTLNSYGIS", "CDR-H2": "VIYSDGRRTFYEGSVK", "CDR-H3": "GRAAGTRDS", "replicates, log10 nM": "3.52 / nd / nd", "signal with controls": "0/9"}
{"CDR-H1": "GFTLNSYGTN", "CDR-H2": "VIYSDGRRTFYGDSVK", "CDR-H3": "GDAAGTFDS", "replicates, log10 nM": "nd / 5.28 / nd", "signal with controls": "1/9 (4.14)"}
{"CDR-H1": "GWTLNSYGIS", "CDR-H2": "VIKSDGRRTFYGDSVK", "CDR-H3": "TRAAGTFDS", "replicates, log10 nM": "nd / nd / nd", "signal with controls": "0/9"}
{"CDR-H1": "GFTLNSYGIS", "CDR-H2": "VIYSHVRRTFYGDSVK", "CDR-H3": "GRAASTFDS", "replicates, log10 nM": "nd / nd / nd", "signal with controls": "1/9 (4.13)"}
{"CDR-H1": "FFTLNSYGIS", "CDR-H2": "VIKSDGRRTFYGISVK", "CDR-H3": "GRAAGTFDS", "replicates, log10 nM": "nd / 5.18 / 4.70", "signal with controls": "2/9 (5.01)"}
{"CDR-H1": "GFTLNSYGIS", "CDR-H2": "VIYSDERRTFYGDSVK", "CDR-H3": "YRAAGTFDS", "replicates, log10 nM": "nd / 3.83 / 3.62", "signal with controls": "3/9 (3.89)"}
{"CDR-H1": "GETLNSYGIS", "CDR-H2": "VIYIDGRRTFYGDSVN", "CDR-H3": "GRAAGTFDS", "replicates, log10 nM": "nd / 3.92 / nd", "signal with controls": "2/9 (3.75)"}
{"CDR-H1": "GFTLNSYGIS", "CDR-H2": "VIYSDGRRTFFGDSVK", "CDR-H3": "SRAAGTFCS", "replicates, log10 nM": "nd / nd / 3.77", "signal with controls": "2/9 (3.76)"}
{"CDR-H1": "SFTLNSYGIS", "CDR-H2": "VIYSDGRRTFYGDIVK", "CDR-H3": "GRAAGTFDS", "replicates, log10 nM": "1.34 / 1.45 / 2.00", "signal with controls": "1/9 (3.82)"}
{"CDR-H1": "GFELNSYGIS", "CDR-H2": "VIYSVGRRTFYTDSVK", "CDR-H3": "GRAAGTFDS", "replicates, log10 nM": "nd / nd / nd", "signal with controls": "1/9 (2.83)"}
{"CDR-H1": "GFSLTSYGIS", "CDR-H2": "VIYSDGRRTFYGDSVK", "CDR-H3": "GRAAGTFIS", "replicates, log10 nM": "nd / nd / nd", "signal with controls": "0/9"}
{"CDR-H1": "GFTLNSYGIS", "CDR-H2": "VIYLDGRRTFYGDSVK", "CDR-H3": "GRAADTFDM", "replicates, log10 nM": "nd / nd / nd", "signal with controls": "2/9 (3.98)"}
{"CDR-H1": "GFTLNSYGIS", "CDR-H2": "VIYSDGRFIIYGDSVK", "CDR-H3": "GRAAGTFDS", "replicates, log10 nM": "5.70 / nd / nd", "signal with controls": "1/9 (3.33)"}
{"CDR-H1": "GFTLNSYGIS", "CDR-H2": "VIYSDGRKTFYTNSVK", "CDR-H3": "GRAAGTFDS", "replicates, log10 nM": "1.66 / 1.54 / 1.89", "signal with controls": "4/9 (4.76)"}
{"CDR-H1": "GFTLNSYGIS", "CDR-H2": "VGYSDGRRTFYGDSVK", "CDR-H3": "ARAAGYFDS", "replicates, log10 nM": "nd / nd / nd", "signal with controls": "2/9 (3.16)"}
{"CDR-H1": "GFTLNSYGIS", "CDR-H2": "VITSDGRRTFYGDSDK", "CDR-H3": "GRAAGFFDS", "replicates, log10 nM": "nd / nd / nd", "signal with controls": "3/9 (4.45)"}
{"CDR-H1": "GFTLNSYHIS", "CDR-H2": "VWYSDGRRTFYGDSVK", "CDR-H3": "GRAAGTFDD", "replicates, log10 nM": "6.01 / 4.66 / nd", "signal with controls": "5/9 (4.02)"}
{"CDR-H1": "GFTLNSYGIS", "CDR-H2": "VIYSDGPHTFYGDSVK", "CDR-H3": "GRAAGTFCS", "replicates, log10 nM": "1.75 / 3.28 / 1.92", "signal with controls": "1/9 (2.26)"}
{"CDR-H1": "GFTLNSYGIS", "CDR-H2": "VIYSDGRVTFYGLSVK", "CDR-H3": "GCAAGTFDS", "replicates, log10 nM": "nd / 3.44 / nd", "signal with controls": "2/9 (4.12)"}
{"CDR-H1": "GFTLNSYGIP", "CDR-H2": "RIYSDGRRTFYGDSVK", "CDR-H3": "GYAAGTFDS", "replicates, log10 nM": "nd / nd / nd", "signal with controls": "1/9 (3.00)"}
{"CDR-H1": "GFTLNSYGIS", "CDR-H2": "FIYSDGRRTFYGDSVK", "CDR-H3": "NRAAGTFYS", "replicates, log10 nM": "4.46 / 3.60 / nd", "signal with controls": "5/9 (4.38)"}
{"CDR-H1": "GFTLHSYGIS", "CDR-H2": "VWYSDGRRTFYGDSVK", "CDR-H3": "GTAAGTFDS", "replicates, log10 nM": "nd / nd / nd", "signal with controls": "0/9"}
{"CDR-H1": "GFTLNSDGIS", "CDR-H2": "VIYSDGRRTFYGDTVK", "CDR-H3": "GRGAGTFDS", "replicates, log10 nM": "nd / nd / nd", "signal with controls": "1/9 (4.28)"}

Repeated from above, the 3 best binders with a signal in all replicates:

| CDR-H1 | CDR-H2 | CDR-H3 | replicates, log10 nM | signal with controls |
|---|---|---|---|---|
| SFTLNSYGIS | VIYSDGRRTFYGDIVK | GRAAGTFDS | 1.34 / 1.45 / 2.00 | 1/9 (3.82) |
| GFTLNSYGIS | VIYSDGRKTFYTNSVK | GRAAGTFDS | 1.66 / 1.54 / 1.89 | 4/9 (4.76) |
| GFTLNSYGIS | VIYSDGPHTFYGDSVK | GRAAGTFCS | 1.75 / 3.28 / 1.92 | 1/9 (2.26) |